According to PubChem BioAssay AID651957 (The Scripps Research Institute Molecular Screening Center, 2012):
This is a selection; strong and weak results do not stand in their true shares. Some salts or complexes appear as unconnected parts, following the source record. The source made the active and inactive calls.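 How the source made its calls: active means inhibition above the mean inhibition of all tested compounds plus 3 SD, set per campaign (cut at about 52% in these data); inactive means the rest.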

Protein sequences, listed by entry. Tags and fused reporters are not part of them.
UniProt Q15596, whole entry: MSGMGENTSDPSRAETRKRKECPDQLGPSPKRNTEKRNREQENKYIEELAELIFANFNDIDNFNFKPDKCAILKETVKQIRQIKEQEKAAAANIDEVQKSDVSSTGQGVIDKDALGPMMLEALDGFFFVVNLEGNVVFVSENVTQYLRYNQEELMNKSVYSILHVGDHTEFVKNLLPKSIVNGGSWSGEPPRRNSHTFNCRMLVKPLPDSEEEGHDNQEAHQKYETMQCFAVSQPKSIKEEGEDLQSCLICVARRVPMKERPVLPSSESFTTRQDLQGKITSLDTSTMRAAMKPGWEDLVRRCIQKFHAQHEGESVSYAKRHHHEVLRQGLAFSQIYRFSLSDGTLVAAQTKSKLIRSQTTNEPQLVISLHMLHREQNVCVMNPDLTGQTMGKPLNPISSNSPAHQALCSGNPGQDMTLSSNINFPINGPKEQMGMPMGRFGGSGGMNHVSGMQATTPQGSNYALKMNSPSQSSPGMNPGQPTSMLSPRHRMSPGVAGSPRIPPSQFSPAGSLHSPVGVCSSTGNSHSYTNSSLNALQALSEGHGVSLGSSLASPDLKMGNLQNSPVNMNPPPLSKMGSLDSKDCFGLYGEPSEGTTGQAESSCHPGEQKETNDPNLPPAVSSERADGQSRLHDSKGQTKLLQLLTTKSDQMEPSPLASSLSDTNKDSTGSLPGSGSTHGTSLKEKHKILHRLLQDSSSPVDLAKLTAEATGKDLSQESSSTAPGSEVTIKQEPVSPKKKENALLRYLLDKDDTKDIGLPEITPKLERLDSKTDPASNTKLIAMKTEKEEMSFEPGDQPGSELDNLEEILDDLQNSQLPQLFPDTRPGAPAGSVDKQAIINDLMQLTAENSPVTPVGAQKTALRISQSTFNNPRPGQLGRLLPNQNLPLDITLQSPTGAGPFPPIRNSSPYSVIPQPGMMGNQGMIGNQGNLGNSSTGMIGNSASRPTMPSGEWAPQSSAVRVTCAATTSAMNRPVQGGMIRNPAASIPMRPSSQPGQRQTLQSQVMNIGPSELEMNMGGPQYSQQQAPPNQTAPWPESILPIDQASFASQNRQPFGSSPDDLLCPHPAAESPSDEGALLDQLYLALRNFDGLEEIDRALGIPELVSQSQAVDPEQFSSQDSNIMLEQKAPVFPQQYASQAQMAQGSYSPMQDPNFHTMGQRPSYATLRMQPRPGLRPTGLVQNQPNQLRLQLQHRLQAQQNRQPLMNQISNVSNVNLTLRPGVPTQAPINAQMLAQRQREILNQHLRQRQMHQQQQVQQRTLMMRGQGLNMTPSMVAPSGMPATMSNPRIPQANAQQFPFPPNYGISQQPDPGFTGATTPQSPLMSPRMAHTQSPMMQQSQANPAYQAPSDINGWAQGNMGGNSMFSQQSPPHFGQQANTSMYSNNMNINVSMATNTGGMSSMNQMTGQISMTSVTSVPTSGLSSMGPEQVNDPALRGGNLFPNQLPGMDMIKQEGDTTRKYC

Molecular target: Nuclear receptor coactivator 2 (Homo sapiens) (UniProt Q15596)
Test: decrease of SRC2 fusion reporter luminescence – cell-based, SRC2 inhibitor project, primary screen (AID 651957);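 further: 0% = DMSO treated cells and 100% = cells given Gossypol at 36 µM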
Details: HEK293 GAL4-SRC2 luciferase reporter, at 9 µM, stronger effect = higher value

| Compound | inhibition |
| --- | --- |
| O=[N+]([O-])c1cc([N+](=O)[O-])c(Nc2ccccn2)c([N+](=O)[O-])c1 | inactive: -3.25% |
| Cc1c(NP(C)(=O)Oc2ccc(C(C)C)cc2)c(=O)n(-c2ccccc2)n1C (stereo not drawn) | inactive: 9.23% |
| CCc1ccc(OP(C)(=O)O)cc1 | inactive: -5.66% |
| CP(=O)(Nc1ccccn1)Oc1ccccc1 (stereo not drawn) | inactive: -43.6% |
| COc1ccccc1OP(C)(=O)Nc1ccc(C)cc1C (stereo not drawn) | inactive: 3.94% |
| COc1ccccc1OP(C)(=O)Nc1ccc(Br)cc1 (stereo not drawn) | inactive: 7.28% |
| CN(C)CCOC(=O)C(O)(c1ccccc1)C1CCCC1 (stereo not drawn) | inactive: -4.27% |
| COc1ccc(OP(C)(=O)Nc2ccccn2)cc1 (stereo not drawn) | inactive: -3.86% |
| CP(=O)(OCCOc1ccccc1)OCCOc1ccccc1 | inactive: -16.1% |
| CP(=O)(Nc1ccc(Cl)cc1Cl)Oc1ccccc1 (stereo not drawn) | inactive: -12.8% |
| CCCCCCCCCCCCCCCC1C[N+](C)(C)CCOP(C)(=O)O1 (stereo not drawn) | inactive: -8.3% |
| O=C1C(O)=C([N+](=O)[O-])C(=O)C(O)=C1[N+](=O)[O-] | inactive: -21.5% |
| Cc1cc(C)cc(OP(C)(=O)Nc2cccc(C(F)(F)F)c2)c1 (stereo not drawn) | inactive: -19.6% |
| COc1ccc(OP(C)(=O)Nc2ccccc2Br)cc1 (stereo not drawn) | inactive: -14.7% |
| COc1ccccc1OP(C)(=O)Nc1ccc(C)c(C)c1 (stereo not drawn) | inactive: -0.24% |
| Nc1ccc2c(ccc3cccnc32)n1.O=[N+]([O-])c1cc([N+](=O)[O-])c(O)c([N+](=O)[O-])c1 | inactive: -79.2% |
| CP(=O)(OC12CC3CC(CC(C3)C1)C2)OC12CC3CC(CC(C3)C1)C2 | inactive: -12% |
| CCOC(=O)c1ccc(NP(C)(=O)Oc2ccc(Cl)cc2)cc1 (stereo not drawn) | inactive: -2.68% |
| CP(=O)(Nc1ccc(Cl)cc1)Oc1ccc(F)cc1 (stereo not drawn) | inactive: -14.4% |
| CC(C)(C)c1ccc(OP(C)(=O)O)cc1 | inactive: 15.2% |

| Compound | inhibition |
| --- | --- |
| COc1ccccc1OP(C)(=O)Nc1ccccc1Br (stereo not drawn) | inactive: -7.96% |
| CN(C)C(=O)c1c([N+](=O)[O-])cc([N+](=O)[O-])cc1[N+](=O)[O-] | inactive: 20.9% |
| CCN(CC)CC(O)COC(=O)C(O)(c1ccccc1)C1CCCCC1 (stereo not drawn) | inactive: -1.75% |
| COc1ccc(OP(C)(=O)Nc2ccc(Br)cc2)cc1 (stereo not drawn) | inactive: 5.84% |
| CP(=O)(Oc1ccccc1)N1CCOC1=O (stereo not drawn) | inactive: 10.9% |
| CCc1ccc(OP(C)(=O)Nc2cccnc2)cc1 (stereo not drawn) | inactive: -24.1% |
| COc1ccccc1OP(C)(=O)Nc1c(C)n(C)n(-c2ccccc2)c1=O (stereo not drawn) | inactive: -19.2% |
| O=C(OCCCN1CCCC1)C(O)(c1ccccc1)C1CCCCC1 (stereo not drawn) | inactive: -23.7% |
| CP(=O)(Nc1ccc2c(c1)OCCO2)Oc1ccccc1 (stereo not drawn) | inactive: 2.93% |
| O=[N+]([O-])c1cc([N+](=O)[O-])c(C(F)(F)F)c([N+](=O)[O-])c1O | inactive: 0.43% |
| Cc1ccccc1NP(C)(=O)Nc1ccccc1C | inactive: -21.9% |
| CP(=O)(Nc1ccc(SC(F)(F)F)cc1)Oc1ccc(F)cc1 (stereo not drawn) | inactive: 15.2% |
| CCOP(=O)(CC)OCC | inactive: -0.34% |
| CCOP(C)(=S)SCC(=O)NC(C)(CC)C(=O)O (stereo not drawn) | inactive: -18.9% |
| O=[N+]([O-])c1cc([N+](=O)[O-])c(NCC2CCS(=O)(=O)C2)c([N+](=O)[O-])c1 (stereo not drawn) | inactive: 6.86% |
| Cc1cc(-c2cccc3ccccc23)c(C)cn1.O=[N+]([O-])c1cc([N+](=O)[O-])c(O)c([N+](=O)[O-])c1 | inactive: -19.4% |
| O=[N+]([O-])c1ccc(OP2(=O)COCCO2)cc1 (stereo not drawn) | inactive: -19.3% |
| Cc1c(C(c2ccc3c(c2)OCO3)c2c(C)n(C)n(-c3ccccc3)c2=O)c(=O)n(-c2ccccc2)n1C.O=[N+]([O-])c1cc([N+](=O)[O-])c(O)c([N+](=O)[O-])c1 | inactive: 16.2% |
| COc1ccc(OP(C)(=O)Nc2cccc(Br)c2)cc1 (stereo not drawn) | inactive: -15% |
| COc1ccc(NP(C)(=O)Oc2ccccc2OC)cc1 (stereo not drawn) | inactive: -8.23% |

| Compound | inhibition |
| --- | --- |
| CN(C)CCOC(=O)C(O)(c1ccccc1)C1CCCCC1 (stereo not drawn) | inactive: 15.2% |
| CCN(CC)CCCOC(=O)C(O)(c1ccccc1)C1CCCCC1 (stereo not drawn) | inactive: 21.5% |
| Cc1c([N+](=O)[O-])cc([N+](=O)[O-])c(Br)c1[N+](=O)[O-] | inactive: 14.6% |
| O=[N+]([O-])c1cc([N+](=O)[O-])c(OC2CCCCC2O)c([N+](=O)[O-])c1 (stereo not drawn) | inactive: -41% |
| CCCCCOc1ccc(NP(C)(=O)Oc2ccc(Cl)cc2Cl)cc1 (stereo not drawn) | inactive: 1.4% |
| CP(=O)(Nc1ccccc1)Oc1ccc(F)cc1 (stereo not drawn) | inactive: -7.15% |
| CCN(CC)CCCNc1ccccc1[N+](=O)[O-].O=[N+]([O-])c1cc([N+](=O)[O-])c(O)c([N+](=O)[O-])c1 | inactive: -20.7% |
| COc1ccc(OP(C)(=O)Nc2ccc(SC(F)(F)F)cc2)cc1 (stereo not drawn) | inactive: -8.64% |
| CCOC(=O)c1ccc(NP(C)(=O)Oc2ccc(F)cc2)cc1 (stereo not drawn) | inactive: -20.2% |
| O=C(OCCN1CCN(CCOCc2ccccc2)CC1)C(O)(c1ccccc1)c1ccccc1 | inactive: -13.5% |
| O=C(OC1CN2CCC1CC2)c1ccc([N+](=O)[O-])cc1 (stereo not drawn) | inactive: 14.5% |
| COc1ccc2c(c1O)-c1c(O)c(OC)cc3c1[C@H](C2)[N+](C)(C)CC3.O=[N+]([O-])c1cc([N+](=O)[O-])c([O-])c([N+](=O)[O-])c1[O-] | inactive: -8.49% |
| O=[N+]([O-])c1cc([N+](=O)[O-])c(Nc2ccc(Cl)cc2)c([N+](=O)[O-])c1 | inactive: -148% |
| CC(C)c1ccc(OP(C)(=O)Nc2ccc(SC(F)(F)F)cc2)cc1 (stereo not drawn) | inactive: -11.5% |
| CP(=O)(Nc1ccccc1F)Oc1ccccc1 (stereo not drawn) | inactive: 15.1% |
| CP(=O)(Nc1cccc(Br)c1)Oc1ccccc1 (stereo not drawn) | inactive: 13.5% |
| Cc1cc(C)cc(OP(C)(=O)Nc2ccccn2)c1 (stereo not drawn) | inactive: -2.99% |
| Cc1ccc(C)c(NP(C)(=O)Oc2ccccc2)c1 (stereo not drawn) | inactive: -35.7% |
